Data on 22 compounds can be found in PubChem BioAssay AID1416 (The Scripps Research Institute Molecular Screening Center, 2008).

Protein sequences, listed by entry. Tags and fused reporters are not part of them. Lines headed by an entry give the natural chain unless they say otherwise; changes in a name come on top.
UniProt Q9NZJ5: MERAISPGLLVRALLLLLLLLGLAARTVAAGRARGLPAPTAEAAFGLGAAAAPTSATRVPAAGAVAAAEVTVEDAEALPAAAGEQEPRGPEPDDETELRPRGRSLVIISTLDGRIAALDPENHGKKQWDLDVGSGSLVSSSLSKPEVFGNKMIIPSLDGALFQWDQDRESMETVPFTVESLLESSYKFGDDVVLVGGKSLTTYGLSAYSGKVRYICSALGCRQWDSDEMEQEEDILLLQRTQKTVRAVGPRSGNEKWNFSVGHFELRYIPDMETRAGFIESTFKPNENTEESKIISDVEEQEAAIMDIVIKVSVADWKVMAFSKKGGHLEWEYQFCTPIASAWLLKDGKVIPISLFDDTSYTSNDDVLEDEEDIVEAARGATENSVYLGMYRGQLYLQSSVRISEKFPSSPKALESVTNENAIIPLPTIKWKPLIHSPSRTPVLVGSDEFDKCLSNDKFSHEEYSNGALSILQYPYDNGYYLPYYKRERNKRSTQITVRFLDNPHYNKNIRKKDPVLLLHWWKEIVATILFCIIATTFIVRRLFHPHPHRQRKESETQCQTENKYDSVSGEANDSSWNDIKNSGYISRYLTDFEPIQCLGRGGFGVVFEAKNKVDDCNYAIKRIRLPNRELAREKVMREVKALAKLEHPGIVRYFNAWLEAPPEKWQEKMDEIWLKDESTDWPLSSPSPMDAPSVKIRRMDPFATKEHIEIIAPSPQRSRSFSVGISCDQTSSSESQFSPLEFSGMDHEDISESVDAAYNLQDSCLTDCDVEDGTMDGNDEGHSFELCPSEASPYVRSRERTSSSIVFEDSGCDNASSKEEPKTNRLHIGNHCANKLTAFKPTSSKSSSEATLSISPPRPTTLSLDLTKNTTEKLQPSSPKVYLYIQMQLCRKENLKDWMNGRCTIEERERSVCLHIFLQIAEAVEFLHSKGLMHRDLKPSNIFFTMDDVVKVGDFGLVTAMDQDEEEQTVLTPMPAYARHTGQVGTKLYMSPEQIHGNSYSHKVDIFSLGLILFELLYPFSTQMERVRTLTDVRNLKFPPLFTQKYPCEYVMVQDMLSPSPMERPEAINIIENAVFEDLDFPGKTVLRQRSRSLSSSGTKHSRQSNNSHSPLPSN

What is called inhibition is the change of the read-out against control, counted positive when it falls.

Structures are written as SMILES. This is a selection; strong and weak results do not stand in their true shares. Active and inactive are the calls of the source.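 Rule for the calls: active = inhibition above the mean inhibition of all tested compounds plus 3 SD, set separately per screening campaign (cut at about 2.9% in these data); inactive = the rest.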

This assay deals with Eukaryotic translation initiation factor 2-alpha kinase 3 (Homo sapiens) (UniProt Q9NZJ5). Nature of the assay: block of dimerizer-induced PERK translation repression, primary screen, PERK inhibitor project, CHO PERK-DD cells, SEAP luminescence, HTS (AID 1416).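 Note: PERK kinase domain activated by AP20187 dimerizer at 100 nM; 0% = DMSO with dimerizer and 100% = rapamycin at 8.4 µM.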 The note with it: CHO PERK-DD fusion, SEAP luminescence translation reporter; at 5.6 µM; stronger effect = higher value.
As to `Cc1cccc(OCC(=O)OC2CN3CCC2CC3)c1` (configuration not stated), the inhibition was inactive: -0.01%. With `O=[As](O)(c1cccc(O)c1)c1cccc(O)c1` the figure was inactive: -0.14%; with `O=C(OC1CN2CCC1CC2)c1ccc(Cl)cc1` (configuration not stated), inactive: 1.82%. With `O=[As](O)(O)c1cccnc1` the figure was inactive: -0.12%; with `COc1cc(C(=O)NCC2(N3CCOCC3)CCCCC2)cc(Cl)c1OC(C)C`, inactive: 0.3%. With `CC(C)/C=N\N=C(\N)N[N+](=O)[O-]` the figure was inactive: 0.77%; with `CN(C(=O)Cc1ccc(Cl)c(Cl)c1)[C@@H]1CCCC[C@H]1N1CCCC1`, inactive: 0.42%; with `CC1(CBr)Cn2c(nc3ccccc3c2=O)S1` (configuration not stated), inactive: 0.46%. `O=[As](O)(c1ccccc1Br)c1ccccc1Br`: the inhibition is inactive: -0.68%. With `CC(C)(C)C(=O)NC(Sc1ncccn1)C(Cl)(Cl)Cl` (configuration not stated) the figure was inactive: 0.12%; with `Clc1n[nH]nc1-c1nn[nH][15n]1`, inactive: -1.41%; with `O=P1(Nc2ccccn2)COc2ccccc2OC1`, inactive: 0.6%. To `CCOP(=O)(Nc1ccc(C)cn1)OCC` belongs inactive: 1.09%; to `Nc1cccc([As](=O)(O)c2ccccc2)c1`, inactive: 0.33%; to `Cc1ccc(OCC(=O)OC2CN3CCC2CC3)cc1` (configuration not stated), inactive: 1.27%. To `O=[As](O)(c1cccs1)c1cccs1` belongs inactive: 1.15%; to `O=P1(Nc2ccc(Br)cn2)COc2ccccc2OC1`, inactive: 0.97%; to `O=P1(Nc2ncccn2)COc2ccccc2OC1`, inactive: 0.76%. On to `CN(C)C1(CNC(=O)c2ccc(S(C)(=O)=O)cc2)CCCCC1`, for which the inhibition is inactive: 1.6%.

`O=C(/C=C/c1ccccc1)OC1CN2CCC1CC2` (configuration not stated): the inhibition is inactive: 0.06%. To `CC1CCC(C(C)C)C(OP(=O)(Nc2ccccn2)c2ccccc2)C1` (configuration not stated) belongs inactive: -0.23%; to `Cc1nn(-c2ccccc2)c2c1P(=O)(N1CCOCC1)N(C)C(c1ccccc1)=N2` (configuration not stated), inactive: -0.49%.
